Results from patent US8628750B2, “Cancer imaging and treatment” (Technische Universitat Munchen, priority 2006, dated 2014).
Where two headings read alike, the source gives them in different places.

Protein sequences, listed by entry. Tags and fused reporters are not part of them.
UniProt P61073, whole entry: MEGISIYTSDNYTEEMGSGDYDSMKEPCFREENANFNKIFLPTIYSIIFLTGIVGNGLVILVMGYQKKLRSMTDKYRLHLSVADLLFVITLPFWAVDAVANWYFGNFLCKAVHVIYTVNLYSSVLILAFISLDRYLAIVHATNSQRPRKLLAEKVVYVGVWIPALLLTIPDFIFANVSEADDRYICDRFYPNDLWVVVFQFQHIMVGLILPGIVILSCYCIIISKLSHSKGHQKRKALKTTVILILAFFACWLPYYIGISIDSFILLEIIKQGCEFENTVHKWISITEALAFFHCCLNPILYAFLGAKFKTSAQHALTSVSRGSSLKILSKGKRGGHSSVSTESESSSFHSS

Target: human CXCR4 (Homo sapiens, UniProt P61073)
Assay: cell-based
Type: binding
Design: Jurkat cells that endogenously express the CXCR4 receptor; endogenous in cells; host or cells: Jurkat (ATCC)
Settings: for affinity profile (IC50) in words: either with ^125I-CPCR4 or ^125I-SDF-1α as tracer
Method: For receptor binding assays cells were resuspended in PBS/0.2% BSA. […] Cell bound radioactivity was determined by using a gamma counter.

Row | Compound | affinity profile (IC50) in words | further results
1 | N=C(N)NCCC[C@@H]1NC(=O)[C@H](CCCNC(N)=O)NC(=O)[C@@H](Cc2ccc(O)cc2)NC(=O)CNC(=O)[C@H](Cc2ccc3ccccc3c2)NC1=O [OD27, cyc[Nal-Gly-D-Tyr-Cit-Arg]] |  | IC50: 35 ± 7 nM
2 | cyclo[D-Tyr-Arg-Arg-Nal-Gly] [CPCR4, reference compound] | nanomolar IC50 values | 
3 | SDF-1α | nanomolar IC50 values | 
4 | cyc[D-Tyr-Arg-Arg-Nal-Dap(FP)-Gly] [BL 58] |  | IC50 (Table 7, N^α-methyl scan of cyclic hexapeptides, tracer ^125I-CPCR4, read-out: IC50): ~1000 nM
